Reference: publication PMC2742655 (Bioorganic & medicinal chemistry letters, 2009)

Test system: P. falciparum W2 strain (chloroquine-resistant)
Assay: Antiplasmodial activity, growth of P. falciparum W2 strain
Assay type: cell-based
Conditions: Plasmodium falciparum, W2, read-out: IC50 W2 P. falciparum

CC(C)C[C@H](NC(=O)[C@H]1O[C@@H]1C(=O)O)C(=O)NCCCCN=C(N)N [Compound E64, E64]
IC50: 1.96 ± 0.121 µM
